Measured values: ChEMBL document CHEMBL3593236, “Cloning, characterization and anion inhibition studies of a new γ-carbonic anhydrase from the Antarctic bacterium Pseudoalteromonas haloplanktis” (Bioorg Med Chem, 2015)

The chains behind the UniProt entries cited, without tags or fusion partners. Residues count along the entry.
UniProt P40881, 35-247 limits assumed: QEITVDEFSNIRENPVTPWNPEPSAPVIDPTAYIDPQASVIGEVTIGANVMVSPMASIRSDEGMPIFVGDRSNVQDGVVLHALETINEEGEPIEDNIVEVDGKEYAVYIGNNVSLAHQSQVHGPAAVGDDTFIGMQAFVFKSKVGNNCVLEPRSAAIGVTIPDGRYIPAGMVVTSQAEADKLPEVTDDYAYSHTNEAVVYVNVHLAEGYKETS

Target: Carbonic anhydrase (Methanosarcina thermophila, UniProt P40881)
Test: Inhibition of archaeon Methanosarcina thermophila gamma-CA after 15 mins by stopped-flow/Co2 hydration assay

Question: How did the Ki turn out when `N#CO` was run?
Answer: 90 µM
